Among the data in paper PMC9062740, “The CLIP-170 N-terminal domain binds directly to both F-actin and microtubules in a mutually exclusive manner” (The Journal of Biological Chemistry, 2022) are Kd values, retold here.

The assay has as its target filamentous actin (F-actin) polymerized from rabbit muscle G-actin (rabbit, UniProt P68135 1-377). Briefly: co-sedimentation; high-speed cosedimentation; CLIP-170 fragments 4 μM, phalloidin 0.8 μM, F-actin 0, 1, 2, 4, 8, 12, 16, 24 and 28 μM in PEM50, room temperature; apparent KD from a simple binding equation, 1:1 binding ratio assumed, Bmax set to 1. As to conditions: both partners purified.

B1: CLIP-170 N-terminal fragment H2 (H2 1-481) (domain or fragment)
chain: MSMLKPSGLKAPTKILKPGSTALKTPTAVVAPVEKTISSEKASSTPSSETQEEFVDDFRVGERVWVNGNKPGFIQFLGETQFAPGQWAGIVLDEPIGKNDGSVAGVRYFQCEPLKGIFTRPSKLTRKVQAEDEANGLQTTPASRATSPLCTSTASMVSSSPSTPSNIPQKPSQPAAKEPSATPPISNLTKTASESISNLSEAGSIKKGERELKIGDRVLVGGTKAGVVRFLGETDFAKGEWCGVELDEPLGKNDGAVAGTRYFQCQPKYGLFAPVHKVTKIGFPSTTPAKAKANAVRRVMATTSASLKRSPSASSLSSMSSVASSVSSRPSRTGLLTETSSRYARKISGTTALQEALKEKQQHIEQLLAERDLERAEVAKATSHVGEIEQELALARDGHDQHVLELEAKMDQLRTMVEAADREKVELLNQLEEEKRKVEDLQFRVEEESITKGDLEQKSQISEDPENTQTKLEHARIKELE
modifications: coiled-coil dimer; N-terminal His tag left out; splice form not given, canonical used (the cDNA may be the shorter 1392-aa form, which would differ only in the C-terminal coiled-coil part, after …)
B1: the Kd was around 10.5 µM.
